Antibody variant affinities, Ab-95 light chain, assay 2

Source: Engelhart et al. 2022 (doi:10.1038/s41597-022-01779-4), MIT Lincoln Laboratory and A-Alpha Bio; data file from the FLAb repository.

All variants were tested on one target, the spike HR2 peptide PDVDLGDISGINAS (SARS-CoV-2).

Parent scFv Ab-95: VH joined to VL by three GGGGS repeats. Changes lie in the light chain CDRs alone.
VH: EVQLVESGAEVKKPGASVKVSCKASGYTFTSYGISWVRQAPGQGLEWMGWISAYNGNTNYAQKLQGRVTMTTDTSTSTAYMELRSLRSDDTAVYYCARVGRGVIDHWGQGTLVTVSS
VL: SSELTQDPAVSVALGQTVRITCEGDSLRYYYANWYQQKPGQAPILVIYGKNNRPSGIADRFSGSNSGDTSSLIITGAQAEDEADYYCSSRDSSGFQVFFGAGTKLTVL

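Phage display of a naive human antibody library on the peptide gave the parent. In library AAYL52, one, two or three CDR residues were substituted; doubles and triples were drawn at random. AlphaSeq pools MATa yeast showing the antibodies with MATalpha yeast showing the peptide. After mating in shaken culture at 30 °C for 16 h, diploids were selected and their barcode pairs sequenced. Read counts were normalised to the haploid input and turned into Kd by a linear fit to BCL2-family pairs of known affinity, for each replicate. The assay was run in three technical replicates.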

Each variant is given by its three light chain CDRs, as the data file delimits them; those of the parent are EGDSLRYYYAN, GKNNRPS, SSRDSSGFQVF.
All variants listed here change Y29 of the VL, counted from its first residue.
Numbers give log10(Kd / nM), so 0 is 1 nM and 3 is 1 µM. Smaller is tighter.
"nd" means that the variant was in the library but no mating with the target was seen in that replicate; the authors take this as a sign of poor binding, and no number exists.
Three control strains display no target. For library AAYL52, 28% of the pairings with them gave a signal, with a median of 3.91 and one signal in twenty below 2.90, so weak values seen in few replicates may be background.

Variant EGDSVRHYYAN / GKNDRPS / SSRDSSGFQVF showed nd, 4.85, nd.
Variant EGDSLRFYYAN / GKNNRPS / SSRHASGFQVF showed 3.00, 3.23, 2.54.
Variant EGDSMRQYYAN / IKNNRPS / SSRDSSGFQVF showed 3.61, 4.31, nd.
Variant EEDSLRKYYAN / WKNNRPS / SSRDSSGFQVF showed 4.79, nd, nd.
Variant EGDSLRCYYAN / GKNNRAT / SSRDSSGFQVF showed 3.64, nd, 4.54.
Variant AGDSLRIYYAN / GKTNRPS / SSRDSSGFQVF showed 3.96, nd, nd.
Variant EFDSLREYYAN / GWNNRPS / SSRDSSGFQVF showed 4.20, nd, nd.
Variant EGDSLICYYAN / MKNNRPS / SSRDSSGFQVF showed 3.61, nd, 4.01.
Variant EGDSLRDYYNN / GKNNRPS / SSRDSSGFQVF showed 5.66, nd, nd.
Variant MGDALRDYYAN / GKNNRPS / SSRDSSGFQVF showed 2.44, 2.76, 2.39.
Variant EGDSLRPYYAN / GKINRPS / SSRDSSGFQVK showed 3.70, 3.84, 3.81.
Variant EGDSLRRYWAN / GKNNRRS / SSRDSSGFQVF showed 4.11, nd, 3.56.
Variant EGDSLRQYYAN / GKNNAPS / SSRDSSGFQVY showed 2.80, 2.68, 2.87.
Variant EGHSLRQYYAN / GKNNRPS / SARDSSGFQVF showed 1.96, 1.87, 1.55.
Variant EGDSLREYYAN / GKNNRPS / SSRWSAGFQVF showed 1.94, 2.01, 2.09.
Variant EGDSLRIYYAN / GKKNRPS / SSRDSSGEQVF showed 4.30, nd, nd.
Variant EGDSYRLYYAN / GKNNRPS / SSRDSSGFQVF showed 4.59, nd, nd.
Variant EGDSLREYYAN / GKNNRTS / SSRDSSGFQVF showed 3.07, 3.47, 3.40.
Variant EGDSLRVYYAN / GKNNRDH / SSRDSSGFQVF showed 3.78, nd, nd.
Variant EGDSLLHYYAN / WKNNRPS / SSRDSSGFQVF showed nd, nd, nd.
Variant EGDSLRMYYAN / GKNNRPS / SSRDSSGFQVR showed nd, 2.82, 3.51.
Variant EGDSLRIYYAN / GKNNRPS / SSRDHSGFMVF showed 4.39, 3.28, 4.03.
Variant EGWSLRHYYAN / GKNNRPS / SSRDSSGFQVF showed 2.68, 2.51, 2.36.
Variant EGISLRIYYAN / GKNNRPS / SSRDSWGFQVF showed 1.82, 1.82, 1.34.
Variant EGVSLRVYYAN / GKNNRPS / SSRDSSGFQLF showed 3.82, nd, nd.
Variant EGDSGRVYYAN / GKNNRPS / SSRDSSGFQHF showed nd, nd, nd.
Variant EGASLRQYYAN / GKNNRPS / SPRDSSGFQVF showed nd, nd, nd.
Variant EGDSLRRYYAN / GENNRPS / SSRDSSGCQVF showed 3.39, 3.29, 3.68.
Variant EGDSQRSVYAN / GKNNRPS / SSRDSSGFQVF showed 2.59, 2.93, 2.43.
Variant EGDSLRCYYAN / GKNNRPT / SSRLSSGFQVF showed 4.70, 3.34, nd.
Variant VGDSLRCYYAN / GKNNRPS / SSRDSSGFQVF showed 3.86, 3.01, nd.
Variant EGDSLRNYYTN / GKNNRPA / SSRDSSGFQVF showed 1.70, 1.55, 1.38.
Variant EGDSLRQYYAN / GKNNRPS / SSTLSSGFQVF showed 2.03, 2.05, 1.90.

The closing 2 entries, repeated:

CDR-L1	CDR-L2	CDR-L3	replicates, log10 nM
EGDSLRNYYTN	GKNNRPA	SSRDSSGFQVF	1.70, 1.55, 1.38
EGDSLRQYYAN	GKNNRPS	SSTLSSGFQVF	2.03, 2.05, 1.90

For reference, the parent read 2.31 as the reference entry and 2.25 as a member of this library.